From paper PMC8347464, “Design, Synthesis, and In Vitro Antiproliferative Activity of Hydantoin and Purine Derivatives with the 4-Acetylphenylpiperazinylalkyl Moiety” (Materials, 2021)

Chains of the proteins cited; added tags and fusions are not shown. Lines headed by an entry give the natural chain unless they say otherwise; changes in a name come on top.
UniProt P07650: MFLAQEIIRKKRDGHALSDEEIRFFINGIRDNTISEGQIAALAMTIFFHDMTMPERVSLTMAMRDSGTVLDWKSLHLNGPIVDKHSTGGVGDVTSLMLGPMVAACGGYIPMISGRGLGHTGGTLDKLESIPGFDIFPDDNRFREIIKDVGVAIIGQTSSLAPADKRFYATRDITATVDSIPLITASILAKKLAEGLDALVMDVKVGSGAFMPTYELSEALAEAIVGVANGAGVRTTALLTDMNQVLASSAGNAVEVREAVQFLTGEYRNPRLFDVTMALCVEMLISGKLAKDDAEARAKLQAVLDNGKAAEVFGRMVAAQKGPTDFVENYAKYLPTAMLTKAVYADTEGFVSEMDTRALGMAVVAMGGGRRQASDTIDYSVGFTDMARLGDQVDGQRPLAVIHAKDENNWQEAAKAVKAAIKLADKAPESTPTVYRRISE

Biological target: T1, E. coli TP (thymidine phosphorylase, TP/PD-ECGF) (Escherichia coli, UniProt P07650)
T1 construct: purchased Sigma T6632
Experiment: Thymidine phosphorylase inhibition
Format: biochemical
Conditions: 100 µM screening concentration
Protocol: TP/PD-ECGF (E. coli TP (Sigma T6632)) activity was determined by measuring the absorbance at 290 nm spectrophotometrically, according to the manufacturer′s procedure. Briefly the reaction mixture of 145 µL of potassium phosphate buffer (pH 7.4), 20 µL of 1.5 mM Thymidine 50 monophosphate solution as substrate, and 30 µL of an enzyme (E. coli TP, 0.05 and 0.002 U) was incubated with 5 µL of test materials for 10 min at 25 °C in a 96-well, flat bottom microplate (200 µL). Readings were taking by a microplate reader (SpectraMax Plus384, USA) at 290 nm. The readings were taken continuously after 10, 20, and 30 min by a microplate reader. All assays were performed in triplicate.

Question: With “7-Deazaxanthine [Compound 7-DX, reference compound]” as the substance, how does the “inhibition of thymidine phosphorylase activity” value read?
Answer: 54.55%
